Data published in patent US20260216157A1, “TETRAHYDROTHIOPHENE DERIVATIVE AND USE THEREOF IN MEDICINE” (Haisco Pharmaceutical Group Co., Ltd., priority 2023, published 2026).
Where two headings read alike, the source gives them in different places.

By UniProt entry, the sequences of proteins in these tests, tags left out.
UniProt Q9Y5Y9, whole entry: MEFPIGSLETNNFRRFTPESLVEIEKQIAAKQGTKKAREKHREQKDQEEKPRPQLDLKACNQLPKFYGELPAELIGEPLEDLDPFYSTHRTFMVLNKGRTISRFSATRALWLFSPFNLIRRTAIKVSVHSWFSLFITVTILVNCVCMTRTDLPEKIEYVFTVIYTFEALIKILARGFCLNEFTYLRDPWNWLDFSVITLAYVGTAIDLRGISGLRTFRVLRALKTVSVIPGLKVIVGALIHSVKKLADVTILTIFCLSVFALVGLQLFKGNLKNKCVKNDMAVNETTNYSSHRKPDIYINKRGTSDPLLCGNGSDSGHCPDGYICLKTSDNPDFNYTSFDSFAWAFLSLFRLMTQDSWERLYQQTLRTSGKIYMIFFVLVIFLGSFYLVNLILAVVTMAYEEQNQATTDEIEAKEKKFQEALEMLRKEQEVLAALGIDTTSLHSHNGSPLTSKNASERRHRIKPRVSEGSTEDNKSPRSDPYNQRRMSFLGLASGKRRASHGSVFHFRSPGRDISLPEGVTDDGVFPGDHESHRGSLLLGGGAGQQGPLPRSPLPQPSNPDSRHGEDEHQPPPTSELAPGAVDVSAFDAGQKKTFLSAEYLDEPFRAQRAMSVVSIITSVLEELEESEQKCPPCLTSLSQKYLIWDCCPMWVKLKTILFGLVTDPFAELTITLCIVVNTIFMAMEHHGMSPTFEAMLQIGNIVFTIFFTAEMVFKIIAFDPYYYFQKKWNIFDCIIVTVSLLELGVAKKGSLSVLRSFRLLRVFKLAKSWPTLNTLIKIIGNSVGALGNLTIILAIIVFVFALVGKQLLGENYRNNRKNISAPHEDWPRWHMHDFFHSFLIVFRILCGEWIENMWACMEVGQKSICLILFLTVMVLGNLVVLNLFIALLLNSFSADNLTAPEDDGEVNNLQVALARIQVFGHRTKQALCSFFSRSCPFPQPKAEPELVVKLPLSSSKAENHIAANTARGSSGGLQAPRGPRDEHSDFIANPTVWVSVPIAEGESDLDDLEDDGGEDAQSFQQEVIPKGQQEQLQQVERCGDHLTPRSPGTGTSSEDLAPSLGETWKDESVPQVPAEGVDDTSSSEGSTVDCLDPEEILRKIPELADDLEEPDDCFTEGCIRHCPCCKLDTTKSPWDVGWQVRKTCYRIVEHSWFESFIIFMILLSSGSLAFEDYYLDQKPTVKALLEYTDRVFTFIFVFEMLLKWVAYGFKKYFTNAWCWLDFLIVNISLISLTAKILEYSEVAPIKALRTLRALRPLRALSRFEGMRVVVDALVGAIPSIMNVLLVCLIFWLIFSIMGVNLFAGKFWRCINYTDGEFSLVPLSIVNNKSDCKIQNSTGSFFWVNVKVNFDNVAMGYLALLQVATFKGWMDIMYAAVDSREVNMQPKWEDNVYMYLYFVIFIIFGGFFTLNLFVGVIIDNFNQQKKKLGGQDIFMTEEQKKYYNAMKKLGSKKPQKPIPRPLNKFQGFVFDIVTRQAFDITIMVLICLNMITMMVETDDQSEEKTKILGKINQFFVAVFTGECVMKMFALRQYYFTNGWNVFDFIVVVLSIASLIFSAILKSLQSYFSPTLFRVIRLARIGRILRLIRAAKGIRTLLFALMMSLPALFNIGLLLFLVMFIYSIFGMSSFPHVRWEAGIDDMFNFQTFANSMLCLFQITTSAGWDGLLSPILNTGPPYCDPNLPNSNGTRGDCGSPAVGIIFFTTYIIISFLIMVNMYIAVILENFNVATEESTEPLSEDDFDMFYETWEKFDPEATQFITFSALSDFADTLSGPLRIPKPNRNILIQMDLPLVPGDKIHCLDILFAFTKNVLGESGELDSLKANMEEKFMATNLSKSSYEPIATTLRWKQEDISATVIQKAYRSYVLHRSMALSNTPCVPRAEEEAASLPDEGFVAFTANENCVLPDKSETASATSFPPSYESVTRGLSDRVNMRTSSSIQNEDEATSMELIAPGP

Molecular target: hNav1.8 (Homo sapiens, UniProt Q9Y5Y9)
Experiment: Nav1.8 manual patch clamp test
Assay type: cell-based
Details: read-out: Inhibitory activity (IC50) against hNav1.8, CHO cells stably expressing human Nav1.8, whole-cell patch clamp, half-inactivated state

Structure (SMILES)	IC50 (tested form: TFA)	IC50
COc1c([C@H]2[C@H](C(=O)Nc3ccc(C(O)CO)nc3)S[C@@](C)(C(F)(F)F)[C@H]2C)ccc(F)c1F (some centres unmarked)	< 10 nM	–
COc1c([C@H]2[C@H](C(=O)Nc3ccnc(C(O)CO)c3)S[C@@](C)(C(F)(F)F)[C@H]2C)ccc(F)c1F (some centres unmarked)	< 1 nM	–
COc1c([C@@H]2[C@@H](C)[C@](C)(C(F)(F)F)S[C@H]2C(=O)Nc2ccnc(C(N)=O)c2)ccc(F)c1F (relative stereo)	–	< 10 nM
COc1c([C@H]2[C@H](C(=O)Nc3ccc(F)c(C(N)=O)c3)S[C@@](C)(C(F)(F)F)[C@H]2C)ccc(F)c1F (relative stereo)	–	< 0.1 nM
C[C@H]1[C@@H](c2ccc(OC(F)(F)F)c3c2OCC3(C)C)[C@H](C(=O)Nc2ccnc(C(N)=O)c2)S[C@@]1(C)C(F)(F)F (relative stereo)	–	< 10 nM
C[C@H]1[C@@H](c2ccc(F)c3c2CCC3)[C@H](C(=O)Nc2ccnc(C(N)=O)c2)S[C@@]1(C)C(F)(F)F (relative stereo) [Mixture of compounds 21-7a and 21-7b]	–	< 1 nM

The remaining lines, values ahead:

IC50 (tested form: TFA)	IC50	Structure (SMILES)
< 10 nM	–	COc1c([C@H]2[C@H](C(=O)Nc3cccc(S(C)(=N)=O)c3)S[C@@](C)(C(F)(F)F)[C@H]2C)ccc(F)c1F (some centres unmarked)
–	< 10 nM	COc1c([C@@H]2[C@@H](C)[C@](C)(C(F)(F)F)S[C@H]2C(=O)Nc2ccn(C)c(=O)c2)ccc(F)c1F (relative stereo)
–	< 0.1 nM	COc1c([C@H]2[C@H](C(=O)Nc3ccc(F)c(S(N)(=O)=O)c3)S[C@@](C)(C(F)(F)F)[C@H]2C)ccc(F)c1F (relative stereo)
–	< 0.1 nM	COc1c([C@H]2[C@H](C(=O)Nc3cccc(S(C)(=O)=O)c3)S[C@@](C)(C(F)(F)F)[C@H]2C)ccc(F)c1F (relative stereo)
–	< 10 nM	COc1c([C@H]2[C@H](C(=O)Nc3cccc(S(N)(=O)=O)c3)S[C@@](C)(C(F)(F)F)[C@H]2C)ccc(F)c1F (relative stereo)
